Source: paper PMC6533151 (Neuron, 2019)
Counter-ions that a name gives are not always drawn.

System: release of endogenous NE in the LC (GRABNE1m fluorescence)
Assay type: cell-based, mouse
Conditions: desipramine 10 μM

Q: Which results are given for CNCCCN1c2ccccc2CCc2ccccc21 [desipramine, Desipramine hydrochloride]?
A: effect on stimulation-induced fluorescence response (20 pulses at 20 Hz, 4-AP 100 μM, Cd2+ 100 μM, yohimbine 20 μM): larger fluorescence responses; effect on decay kinetics of fluorescence signals: significantly slowed down the decay kinetics
